Test results as given in PMC3718777.

Target: rat α3β4 nicotinic acetylcholine receptor (rat) (UniProt P04757)

Substance: amyloid-β peptide, 40 amino acids long (Aβ40), soluble (from UniProt P05067 672-711)
- response of α3β4 nAChRs in HEK cells to 0.2 mM CCh plus 200 nM Aβ40 in the presence of 0.5 or 2 µM IQ, percent of control currents (IQ does not prevent the inhibition by Aβ40) (% of control currents): 70
